This note sets out measurements from PubChem BioAssay AID889 (National Center for Advancing Translational Sciences (NCATS), 2007).

Protein sequences, listed by entry. Tags and fused reporters are not part of them. Residues count along the entry.
UniProt P55210, 24-198 limits assumed: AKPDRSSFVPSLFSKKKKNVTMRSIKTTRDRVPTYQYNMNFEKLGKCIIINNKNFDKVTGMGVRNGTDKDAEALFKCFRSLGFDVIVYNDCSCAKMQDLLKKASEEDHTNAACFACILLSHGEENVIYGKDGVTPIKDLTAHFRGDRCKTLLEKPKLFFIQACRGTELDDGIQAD
UniProt P55210, 207-303 limits assumed: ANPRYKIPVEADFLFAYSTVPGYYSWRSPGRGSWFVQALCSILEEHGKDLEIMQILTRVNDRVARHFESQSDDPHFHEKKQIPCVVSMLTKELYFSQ

The list shows a part of the results, in another mix than the full data. Some results for these compounds are left out of this collection, so the calls shown say nothing about other tests. Results filed as inconclusive are left out. Activity calls are given as the source filed them. The call rests on the fitted dose curve; in most records, active means well fitted inhibition curve with a large enough effect in the main read-out, with a control signal flat (not every such curve was filed as active); inconclusive means small, poorly fitted or top-dose-only effect, or a change in a side signal; inactive means flat fitted curve, though single readings scatter.

In the test the target is Caspase-7 (Homo sapiens) (UniProt P55210). Briefly: qHTS Assay for Allosteric/Competitive Inhibitors of Caspase-7. Further: % of control where 0% means no effect. Particulars: recombinant caspase-7, Ac-DEVD-AFC fluorescence rate; at 11.5 µM (top of the series) unless noted. The source says: NIH Molecular Libraries Screening Centers Network [MLSCN]
NIH Chemical Genomics Center [NCGC]
PI Name: Dr. James Wells,
Dr. Enrique Perez-Paya, Dr.Janice Williams, Dr. Dennis Wolan, a person
The caspases (Cysteine Aspartyl Protease) comprise a related family of 14 dimeric proteases that are critical mediators of apoptosis (programmed cell death) and inflammation. The caspases represent an important class of drug targets for stroke, ischemia, cancer and inflammatory diseases. […] One goal of this project was to identify compounds that act as allosteric inhibitors via stabilizing the procaspase form of the enzyme. Previous work in Well's laboratory has shown that such allosteric inhibitors can be identified and these act by binding at the dimer interface of enzyme (Hardy, Lam et al., 2004).
The biochemical assay was configured using purified caspase 7 at a high enzyme concentration to promote formation of the homodimers and thus facilitate the identification of allosteric inhibitors. The overall goal was to identify reversible inhibitors with better drug-like properties than the currently available set of aspartyl-containing peptidomimetics that covalently bind the active site. Caspase 7 was assayed using the profluorescent substrate Ac-DEVD-AFC. After initiation of the assay with substrate the plates were rapidly read using an automated robotic system (Kalypsys, Inc.) to maintain consistent timing. A kinetic mode of detection was used where the initial rate was collected (estimated final product formation was ~10%). Compounds were screened as a concentration-titration series that ranged from 57 uM to 0.7 nM. Below is the protocol used for caspase 7.
NCGC Assay Protocol Summary:
Caspase 7 was prepared in buffer (50 mM HEPES pH 7.5, 50 mM KCl, 200 mM NaCl, 10 mM DTT, 0.1% CHAPS) at a concentration of 66.6 nM and 3 uL was dispensed to all wells using black solid Kalypsys 1536-well plates. 20 nL of DMSO containing compounds was added using a pin-tool (Kalypsys Inc.) to columns 5-48. Then 20 nL of DMSO solution from a control plate was added to columns 1-4. Controls were: Column 1, 16 point titration with each concentration in duplicate (1:1 dilutions in DMSO; final starting concentration was 57 uM) of the caspase 7 inhibitor Ac-DEVD-CHO (Alexis Biochemicals); Column 2, a 16 point titration with each concentration in duplicate of the free AFC fluorophore prepared in DMSO (Alexis Biochemicals), final starting was 40 uM; Column 3 neutral (DMSO only) control; Column 4: DMSO alone, to serve as a negative control (no substrate was added). Then 1 uL of 20 uM the substrate Ac-DEVD-AFC (Alexis Biochemicals) prepared in the same buffer was dispensed to all wells except columns 2 and 4 and the plates were immediately transferred (< 1 min) to the Viewlux. The plates were then exposed using 405 nm excitation/520 nm emission filters for 4 sec and read at 20 sec intervals for 3 min. […]
Concentration-response curves were fitted to the data calculated from slope of the linear regression of fluorescent intensity versus time (the rate). The concentration-effect curves were then classified based on curve quality (r2), response magnitude and degree of measured activity. […] Inconclusive compounds had appreciable concentration-dependent effects on both the measured rate and the interpolated basal fluorescence intensity at the start of the reaction but where the basal fluorescent intensity was marginal (e.g. < 10-fold). […]
`CN1CCC[C@H](OC(=O)[C@](O)(c2ccccc2)C2CCCC2)C1`: the activity change, negative = inhibition was inactive: -2.48%.

On to `O=C(OC1CN2CCC1CC2)C(CO)(c1ccccc1)c1ccccc1` (stereo not given), for which the activity change, negative = inhibition was inactive: -3.7% [at 57.5 µM].

For `CN1CC[C@H](OC(=O)[C@](O)(c2ccccc2)C2CCCC2)C1`, the activity change, negative = inhibition was inactive: 0.706%.

In the case of `C=C(C)C#C[C@@](O)(C(=O)OC1CCN(C)CC1)c1ccccc1`, the activity change, negative = inhibition was inactive: 0.533%.

As for `CN(C)c1cccc(C(=O)NCC2(N(C)C)CCCCC2)c1`, the activity change, negative = inhibition was inactive: -1.51% [at 57.5 µM].
